# Results reported in US20250049962A1, “NEAR-INFRARED FLUORESCENT CONTRAST BIOIMAGING AGENTS FOR IMAGING OF SENTINEL LYMPH NODES” (Curadel Surgical Innovations, Inc., priority 2021, published 2025).
# What was measured:
# [1] = iodide added to a concentration of 1-5%; cited from earlier work
# [2] = SLN imaging after footpad injection, NIR fluorescence imaging; assay type: in vivo; conditions: 15 minutes post-injection; 5 nmol footpad injection; CD-1 mice
# Source text: Neae Infrared fluorescence imaging can be achieved using a number of commercially available imaging systes. For example, the dual-NIR channel FLARE imaging system has been described in detail. It provides simultaneous illumination with white light (400-650 nm) at 40,000 lx, 660 nm NIR Channel 1 excitation at 4 mW/cm^2 and […] NIR Channel 2 excitation at 10 mW/cm^2. Color and two independent NIR fluorescence emission images (≈700 nm for Channel 1 and ≈800 nm for Channel 2) were acquired simultaneously with custom software at rates up to 15 Hz over a 15 cm diameter field of view. NIR fluorescence from Channel 1 was pseudo-colored in red and NIR fluorescence from Channel 2 was pseudo-colored in lime green prior to merger with the color video image. The imaging system was positioned at a distance of 18 inches from the surgical field.
# The experimental conditions were: • ICG: Reconstituted in water at 500 μM • SLN700: Reconstituted in 50% ethanol/50% water at 500 μM • CUR-438: Reconstituted in D5W at 500 μM
# All foot pad injections and intravenous injections were 10 μL of each of these 500 μM concentrations for a total of 5 nmol per injection. […]
# The target tissue was exposed and the SLN was imaged for NIR fluorescence using dual channels [Channel 1 (700 nm) and Channel 2 (800 nm)] of a NIR imaging system.
smiles,measurement,setting,value
"CC1(C)C(/C=C/C=C/C=C/C=C2\N(CCCCS(=O)(=O)O)c3ccc4ccccc4c3C2(C)C)=[N+](CCCCS(=O)(=O)[O-])c2ccc3ccccc3c21 [ICG, indocyanine green, reference compound]",aqueous solubility,[1],2500 µg/mL
same,first-tier/second-tier signal-to-background ratio,[2],3.0±0.65
